Data as given in patent publication US20020013314A1, “3,4-dihydro-2H-benzo[1,4]oxazine inhibitors of factor Xa” (priority 2000, published 2002).

Sequences of proteins named here, by UniProt entry; tags and fusion partners are left off. Residues count along the entry.
UniProt P00742, 41-179 limits assumed: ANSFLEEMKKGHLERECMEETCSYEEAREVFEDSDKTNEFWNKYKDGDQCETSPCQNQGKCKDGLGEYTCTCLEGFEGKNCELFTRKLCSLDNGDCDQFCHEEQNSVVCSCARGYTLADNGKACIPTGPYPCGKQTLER
UniProt P00742, 235-488 limits assumed: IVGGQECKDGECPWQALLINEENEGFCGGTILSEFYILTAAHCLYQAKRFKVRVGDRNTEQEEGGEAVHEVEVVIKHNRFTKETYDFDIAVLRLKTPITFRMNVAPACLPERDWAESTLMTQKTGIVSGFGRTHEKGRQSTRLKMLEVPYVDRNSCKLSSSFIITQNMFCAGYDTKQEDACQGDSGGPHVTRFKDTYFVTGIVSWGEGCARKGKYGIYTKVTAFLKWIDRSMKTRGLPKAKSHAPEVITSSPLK
UniProt P12259, 29-737 partner limits assumed: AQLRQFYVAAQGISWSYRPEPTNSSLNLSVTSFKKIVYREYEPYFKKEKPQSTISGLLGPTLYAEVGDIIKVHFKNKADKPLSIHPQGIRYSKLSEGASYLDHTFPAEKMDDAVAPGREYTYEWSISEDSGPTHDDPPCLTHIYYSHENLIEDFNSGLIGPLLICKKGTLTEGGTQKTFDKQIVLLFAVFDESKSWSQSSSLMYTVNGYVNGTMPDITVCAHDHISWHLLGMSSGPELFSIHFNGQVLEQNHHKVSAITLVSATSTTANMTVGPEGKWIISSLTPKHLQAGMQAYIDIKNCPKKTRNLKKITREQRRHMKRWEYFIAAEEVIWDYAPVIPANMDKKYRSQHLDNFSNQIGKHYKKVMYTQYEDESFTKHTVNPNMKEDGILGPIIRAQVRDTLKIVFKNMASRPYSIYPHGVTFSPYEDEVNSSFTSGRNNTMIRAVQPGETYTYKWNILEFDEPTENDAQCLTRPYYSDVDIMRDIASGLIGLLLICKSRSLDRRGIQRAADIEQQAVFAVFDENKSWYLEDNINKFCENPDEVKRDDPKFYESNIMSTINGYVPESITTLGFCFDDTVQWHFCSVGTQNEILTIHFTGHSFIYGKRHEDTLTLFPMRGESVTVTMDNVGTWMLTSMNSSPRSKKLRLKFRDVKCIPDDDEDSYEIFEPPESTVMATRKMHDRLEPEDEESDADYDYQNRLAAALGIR
UniProt P12259, 1574-2224 partner limits assumed: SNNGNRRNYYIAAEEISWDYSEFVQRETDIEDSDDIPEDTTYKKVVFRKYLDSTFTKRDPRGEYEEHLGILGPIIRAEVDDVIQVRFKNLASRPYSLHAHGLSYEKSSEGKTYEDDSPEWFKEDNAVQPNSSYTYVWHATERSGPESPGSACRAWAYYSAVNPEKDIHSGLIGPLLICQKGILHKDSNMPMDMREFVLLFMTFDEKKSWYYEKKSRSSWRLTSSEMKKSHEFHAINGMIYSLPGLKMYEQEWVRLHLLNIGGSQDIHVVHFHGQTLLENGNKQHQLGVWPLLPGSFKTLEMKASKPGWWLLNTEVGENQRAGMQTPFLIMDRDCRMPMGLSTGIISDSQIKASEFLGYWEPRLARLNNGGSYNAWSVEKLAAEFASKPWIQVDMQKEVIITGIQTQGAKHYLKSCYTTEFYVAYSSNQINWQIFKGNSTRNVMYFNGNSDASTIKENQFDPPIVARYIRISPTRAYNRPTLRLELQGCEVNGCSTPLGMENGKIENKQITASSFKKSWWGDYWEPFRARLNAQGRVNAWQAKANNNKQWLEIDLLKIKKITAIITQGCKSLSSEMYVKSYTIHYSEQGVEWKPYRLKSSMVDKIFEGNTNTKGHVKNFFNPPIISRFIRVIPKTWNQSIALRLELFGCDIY

Legend:
prothrombinase complex = prothrombinase complex (Homo sapiens, UniProt P00742); assay: prothrombinase inhibition assay (plasma free system, Chromozym TH); assay type: biochemical; settings: read-out: IC50 (nM) Prothrombinase; Table 5
thrombin = thrombin (Homo sapiens, UniProt P00734); assay: thrombin amidolytic assay (Chromozym TH); settings: read-out: IC50 (nM) Thrombin; Table 5
factor Xa = factor Xa (Homo sapiens, UniProt P00742); assay: factor Xa amidolytic assay (chromogenic substrate S-2765); settings: read-out: IC50 (nM) Factor Xa

Row | SMILES | IC50 (prothrombinase complex) [nM] | IC50 (thrombin) [nM] | IC50 (factor Xa; Table 5) [nM] | IC50 (factor Xa; Table 4) [nM]
1 | N=C(N)c1cccc(C(=O)Nc2ccc3c(c2)OCC(=O)N3Cc2ccc3ccc(C(=N)N)cc3c2)c1 | 56600 | 106000 | 1760 | –
2 | CCn1c(CN2C(=O)COc3cc(OC4CCN(C(C)=N)CC4)ccc32)cc2ccc(C(=N)N)cc21 | – | – | – | 2.2

Like-named read-outs stand apart in the source and are kept apart here.
